Results as given in patent US10280144B2, “Pyridazine derivatives as RORc modulators” (Genentech, Inc., priority 2015, dated 2019).

By UniProt entry, the sequences of proteins in these tests, tags left out. Residues count along the entry.
UniProt P51449, 269-508: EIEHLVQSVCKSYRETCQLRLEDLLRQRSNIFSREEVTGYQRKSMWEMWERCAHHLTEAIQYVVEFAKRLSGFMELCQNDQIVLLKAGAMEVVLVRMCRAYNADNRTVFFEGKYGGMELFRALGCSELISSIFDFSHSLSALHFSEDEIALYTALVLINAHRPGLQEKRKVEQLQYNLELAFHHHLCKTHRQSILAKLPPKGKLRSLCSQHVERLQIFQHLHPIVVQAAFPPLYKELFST

Target: RORc ligand binding domain (Homo sapiens (Human), UniProt P51449)
Experiment: In Vitro RORc Ligand Binding Assay
Conditions: radioligand 25-[3H]hydroxycholesterol

## CCN(C[C@@]12CC[C@@H](c3cc(-c4c(F)cccc4F)nnc31)C2(C)C)C(=O)c1cc(C(C)(C)O)n[nH]1 [Compound 189, N-[[(1S,8R)-5-(2,6-difluorophenyl)-11,11-dimethyl-3,4-diazatricyclo[6.2.1.02,7]undeca-2,4,6-trien-1-yl]methyl]-N-ethyl-3-(1-hydroxy-1-methyl-ethyl)-1H-pyrazole-5-carboxamide]
  IC50: 38 nM

## CCN(C[C@@]12CC[C@@H](c3cc(-c4c(F)cccc4F)nnc31)C2(C)C)C(=O)CN1CC(O)C1 [Compound 209, N-[[(1 S,8R)-5-(2,6-difluorophenyl)-11,11-dimethyl-3,4-diazatricyclo[6.2.1.02,7]undeca-2,4,6-trien-1-yl]methyl]-N-ethyl-2-(3-hydroxyazetidin-1-yl)acetamide]
  IC50: 15 nM
